# Tested on: human promyelocyte HL-60 cells
# Experiment: Differentiation of HL-60 promyelocytes into monocytes (NBT reduction)
# Assay type: cell-based
# Settings: analog average ED50 / ED50 for 1α,25-(OH)2D3
# Procedure: The differentiation of HL-60 promyelocytic into monocytes was determined as described by Ostrem et al (J. Biol. Chem. 262, 14164–14171, 1987).
# In the next assay, the cellular activity of the synthesized compounds was established by studying their ability to induce differentiation of human promyelocyte HL-60 cells into monocytes.
# The differentiation of HL-60 promyelocytic into monocytes was determined as described by Ostrem et al (J. Biol. Chem. 262 14164–14171, 1987).
structure (smiles),measurement,setting,value
"C=C1/C(=C\C=C2/CCC[C@]3(C)[C@@H]([C@H](C)CCCC(C)(C)O)CC[C@@H]23)C[C@@H](O)C[C@@H]1O [1α,25-(OH)2D3, 1α,25-dihydroxyvitamin D3, reference compound]",HL-60 Differentiation Activity ratio,Table 6,1
same,HL-60 Differentiation Activity ratio,Table 8,1

# From patent US7112579B2, “26,27-Homologated-20-EPI-2-alkyl-19-nor-vitamin D compounds” (Wisconsin Alumni Research Foundation, priority 1997, dated 2006)
